According to patent EP0934300B1, “THE PREPARATION AND USE OF ORTHO-S[…] AS MATRIX METALLOPROTEINASE AND TACE INHIBITORS” (American Cyanamid Company, priority 1996, dated 1998):
pIC50: −log10 of the molar value.

Molecular target: T1, MMP-1 (Homo sapiens, UniProt P03956)
T1 sequence (P03956 100-469): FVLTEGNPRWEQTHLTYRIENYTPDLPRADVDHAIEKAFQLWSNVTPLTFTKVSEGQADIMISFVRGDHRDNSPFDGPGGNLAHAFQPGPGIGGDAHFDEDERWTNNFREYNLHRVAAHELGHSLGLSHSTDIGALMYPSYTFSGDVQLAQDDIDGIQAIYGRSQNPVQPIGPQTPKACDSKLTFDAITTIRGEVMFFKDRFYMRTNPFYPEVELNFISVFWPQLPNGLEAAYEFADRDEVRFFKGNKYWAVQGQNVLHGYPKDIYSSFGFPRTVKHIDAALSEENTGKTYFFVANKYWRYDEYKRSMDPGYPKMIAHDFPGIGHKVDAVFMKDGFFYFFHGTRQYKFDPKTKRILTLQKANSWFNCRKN
Test: MMP-1 inhibition (thiopeptide or fluorescent peptide substrate assay)
Type: biochemical

COc1ccc(S(=O)(=O)N(Cc2ccccc2)c2c(C(=O)NO)cc(OC)nc2OC)cc1 [Example 33, 3-[Benzyl-(4-methoxy-benzenesulfonyl)-amino]-N-hydroxy-2,6-dimethoxyisonicotinamide]
pIC50: 5.91
